Data on 7 compounds can be found in a compilation of properties of binary mixtures (doi:10.1021/acs.jpcb.6b12122).

This data set in a line: xn = mol fraction of the nth substance listed. The note with it: 298.15 K, 101 kPa.

One may read the viscosity as the internal friction of a fluid under shear. Higher therefore signals a thick fluid. Turning to `OCCOCCOCCOCCO` + CCCC[N+]1(C)CCCC1.O=S(=O)([N-]S(=O)(=O)C(F)(F)F)C(F)(F)F, the viscosity runs as follows: (x1 = 0.5) 50.3 mPa·s; (x1 = 1) 46.5 mPa·s. As for `OCCOCCOCCOCCO` + CCCC[N+]1(C)CCCCC1.O=S(=O)([N-]S(=O)(=O)C(F)(F)F)C(F)(F)F, the viscosity (x1 = 1) is reported as 45.8 mPa·s.

Take `OCCOCCOCCOCCO` + CCCC[n+]1ccn(C)c1.O=S(=O)([O-])C(F)(F)F: the viscosity runs as follows: (x1 = 0.5) 53.2 mPa·s; (x1 = 1) 45.4 mPa·s. `OCCOCCOCCOCCO` + CCCC[n+]1ccn(C)c1C.F[B-](F)(F)F: the viscosity (x1 = 1) stood at 45.6 mPa·s. Same read-out and setting: the same measure for `OCCOCCOCCOCCO` + CCCn1cc[n+](C)c1C.O=S(=O)([N-]S(=O)(=O)C(F)(F)F)C(F)(F)F: 45.8 mPa·s. As to `OCCOCCOCCOCCO` + CC[n+]1ccn(C)c1.O=S(=O)([N-]S(=O)(=O)C(F)(F)F)C(F)(F)F, the viscosity was found to be 37.5 mPa·s (x1 = 0.5) and 46.5 mPa·s (x1 = 1).

Where the note is “x1 = 1”, `OCCOCCOCCOCCO` + C[N+](C)(C)CCO.O=S(=O)([N-]S(=O)(=O)C(F)(F)F)C(F)(F)F came in with a viscosity of 46.5 mPa·s.
